# AlphaSeq binding of Ab-14 light chain variants to a spike HR2 peptide

Binding partner: SARS-CoV-2 spike HR2 peptide, sequence PDVDLGDISGINAS.

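The parent was found by panning a naive human phage display library on the peptide. Designed CDR sequences, proposed from the first random library and measured here. Group labels follow the data file (Ctrl: baseline library sampled from a position-specific scoring matrix, with some repeated check sequences; GPLM: also part of the Gaussian process libraries; HC: hill climbing; a sequence that several methods proposed may carry one label only). The assay is AlphaSeq: two haploid yeast populations carry antibody and antigen on their surface. Binding brings cells together so that they mate, and sequencing counts the barcode pairs among the diploids. Each replicate has its own calibration line, from reference interactions of the BCL2 family. Mating was done six times.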

Parent: Ab-14, a human scFv built as VH, three GGGGS repeats, VL. Only the CDRs of the light chain vary.
VH: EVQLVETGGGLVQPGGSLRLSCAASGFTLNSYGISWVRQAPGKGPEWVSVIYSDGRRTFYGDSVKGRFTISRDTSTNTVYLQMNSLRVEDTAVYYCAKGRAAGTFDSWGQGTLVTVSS
VL: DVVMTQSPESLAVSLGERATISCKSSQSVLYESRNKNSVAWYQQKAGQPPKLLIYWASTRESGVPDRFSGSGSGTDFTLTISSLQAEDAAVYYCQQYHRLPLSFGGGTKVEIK

Each variant's VL is given in full. The read-out is the apparent dissociation constant on a log10 scale (nM): the lower, the stronger. Replicates are averaged; those with no signal do not enter the mean. Where no diploid with the target was found in that replicate, the entry reads "ND": below detection, most likely a poor binder, though not proof of it. The authors averaged sequences with at least three values out of six and counted those with two or fewer as poor binders. A sequence that the file lists under several names has all its replicates listed entry by entry, parted by semicolons. The range of this assay differs from that of the first round, and the authors advise against merging the two. Of ten entries with the parent sequence, four were seen in most replicates (averages 0.34 to 2.37), three in one and three in none, so single entries are noisy. Three control strains display no target. For all light chain designs, 4% of the pairings with them gave a signal, with a median of 2.64 and one signal in twenty below 1.59, so weak values seen in few replicates may be background. For each scFv, signals with the empty controls are counted beside the result.

With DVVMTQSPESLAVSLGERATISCKSNQSVLYESRNHNSVAWYQQKAGQPPKLLIYEASTRESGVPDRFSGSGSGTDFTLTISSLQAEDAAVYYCQQYHRLPLSFGGGTKVEIK [Ctrl] the result was ND, 1.40, 0.24, 1.88, 0.49, 1.55 (mean 1.11; controls 0 of 18).
With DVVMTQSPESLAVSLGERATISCKDSQSVLYESTNKNSVAWYQQKAGQPPKLLIYWASTRESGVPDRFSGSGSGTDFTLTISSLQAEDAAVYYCQQYHRLPLSFGGGTKVEIK [Ctrl] the result was 3.71, 2.42, 2.19, 4.50, ND, 3.18 (mean 3.20; controls 2 of 18).
With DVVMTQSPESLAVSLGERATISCKSSQSVSYESRNKPSVAWYQQKAGQPPKLLIYWASTRESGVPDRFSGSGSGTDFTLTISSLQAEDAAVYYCQQYHRLPLSFGGGTKVEIK [Ctrl] the result was ND, ND, ND, ND, ND, ND (controls 0 of 18).
With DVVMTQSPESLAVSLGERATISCKSSQEVLDESRNKNSVAWYQQKAGQPPKLLIYQASTRESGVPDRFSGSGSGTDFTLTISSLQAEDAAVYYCQQYHRLPLSFGGGTKVEIK [Ctrl] the result was 0.86, 0.57, 0.70, 0.83, 0.84, 0.50 (mean 0.72; controls 0 of 18).
With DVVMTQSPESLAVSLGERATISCKSSVSVKYESRNVNSVAWYQQKAGQPPKLLIYWASTREIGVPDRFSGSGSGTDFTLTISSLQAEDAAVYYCQQYHRLPWSFGGGTKVEIK [Ctrl] the result was ND, ND, ND, ND, 2.97, ND (controls 4 of 18).
With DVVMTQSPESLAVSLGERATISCKSSQSVLYESLNKNSVAWYQQKAGQPPKLLIYEASTRESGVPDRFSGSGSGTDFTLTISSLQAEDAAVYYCQQYHRLPLSFGGGTKVEIK [Ctrl+GPLM_HC] the result was 0.27, -0.09, 0.23, 0.07, 0.43, 0.02; 1.94, 1.78, 1.90, ND, 3.19, 2.64 (mean 1.13; controls 1 of 36).
With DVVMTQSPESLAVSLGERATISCKSSQSVLYESRNYNSVAWYQQKAGQPPKLLIYWASTRESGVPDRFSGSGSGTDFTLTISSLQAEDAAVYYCQQYWRLPLMFGGGTKVEIK [Ctrl] the result was ND, 1.40, ND, ND, ND, ND (controls 0 of 18).
With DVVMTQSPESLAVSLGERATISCKSSQSVLQESRNKNSVAWYQQKAGQPPKLLIYWASTRESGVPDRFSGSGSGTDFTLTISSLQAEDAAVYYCQTYHRLPLSFGGGTKVEIK [Ctrl] the result was 2.45, ND, 2.24, 2.37, ND, ND (mean 2.36; controls 1 of 18).
With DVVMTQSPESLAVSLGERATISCKSSQSWLFESLNKNNVAWYQQKAGQPPKLLIYWGSTRESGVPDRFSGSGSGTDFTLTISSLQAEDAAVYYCQQYHRLPLGFGGGTKVEIK [Ctrl] the result was ND, 1.06, 0.61, 0.67, 0.63, 1.35 (mean 0.86; controls 0 of 18).
With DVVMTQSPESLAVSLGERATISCKSSQSVLYESRNDNSVAWYQQKAGQPPKLLIYKASTRESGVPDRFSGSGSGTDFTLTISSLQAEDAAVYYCQQYIRLPLSFGGGTKVEIK [Ctrl] the result was 0.71, 0.89, 0.73, 0.29, 0.31, 0.85 (mean 0.63; controls 1 of 18).
With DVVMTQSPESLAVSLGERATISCKSSQSVLHEMFNKNSVAWYQQKAGQPPKLLIYHASTRESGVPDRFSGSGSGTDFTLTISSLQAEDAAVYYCQQYPRLPLSFGGGTKVEIK [Ctrl] the result was ND, ND, 4.91, 3.80, ND, ND (mean 4.35; controls 1 of 18).
With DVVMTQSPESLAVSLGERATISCKSSQSVLYESRNKNSVAWYQQKAGQPPKLLIYWASTRESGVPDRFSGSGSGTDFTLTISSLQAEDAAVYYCQQYHRLPLAFGGGTKVEIK [Ctrl] the result was ND, ND, ND, ND, ND, ND (controls 0 of 18).
With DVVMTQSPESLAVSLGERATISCKSSQSVLYESRNKNSVAWYQQKAGQPPKLLIYWASTTESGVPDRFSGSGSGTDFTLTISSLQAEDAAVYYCQQYHRLPLSFGGGTKVEIK [Ctrl] the result was 1.75, ND, ND, ND, ND, ND (controls 0 of 18).
With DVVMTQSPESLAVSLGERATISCKSSQSVEQESRNKNSVAWYQQKAGQPPKLLIYGASTRESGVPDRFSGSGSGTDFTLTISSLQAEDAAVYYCQQYHRLPNSFGGGTKVEIK [Ctrl] the result was ND, ND, ND, ND, ND, ND (controls 0 of 18).
With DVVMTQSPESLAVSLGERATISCKWSQSVLYESRNKNSVAWYQQKAGQPPKLLIYGASTRESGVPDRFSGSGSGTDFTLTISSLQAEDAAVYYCYQYARLPLSFGGGTKVEIK [Ctrl] the result was 0.81, 0.72, 0.28, 1.00, 0.32, 1.66 (mean 0.80; controls 1 of 18).

Again, the first 2 entries without any signal:

{"VL": "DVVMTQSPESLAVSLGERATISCKSSQSVSYESRNKPSVAWYQQKAGQPPKLLIYWASTRESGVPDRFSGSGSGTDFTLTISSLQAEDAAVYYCQQYHRLPLSFGGGTKVEIK", "group": "Ctrl", "replicates, log10 nM": "ND, ND, ND, ND, ND, ND", "mean, log10 nM": "ND", "empty controls": "0/18"}
{"VL": "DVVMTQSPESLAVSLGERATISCKSSQSVLYESRNKNSVAWYQQKAGQPPKLLIYWASTRESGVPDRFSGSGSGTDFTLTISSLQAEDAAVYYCQQYHRLPLAFGGGTKVEIK", "group": "Ctrl", "replicates, log10 nM": "ND, ND, ND, ND, ND, ND", "mean, log10 nM": "ND", "empty controls": "0/18"}

Data: MIT Lincoln Laboratory AlphaSeq set, Li et al. 2023, doi:10.1038/s41467-023-39022-2, as distributed in FLAb.